Results taken from US20250195673A1 (priority 2020, published 2025).
Read-outs that look alike come from different tables or passages of the source.

Target: soluble TfR ectodomain (Homo sapiens, UniProt P02786)

| Substance | binding to TfR ectodomain (SPR response) | binding to TfR ectodomain (SPR response) (listed as holo-transferrin) |
| --- | --- | --- |
| apo-transferrin [apo Tf] | does not | – |
| holo-transferrin [holo Tf] | binds | demonstrated any interaction |
